miR-21 reporter: miR-21 reporter, rising signal; HeLa miR-21 FLuc reporter, luciferase, 48 h; Potency, µM (titrated, usually from 38.3 µM); 340,000 tested, under 10 active; AID 2288; active = well fitted rising curve with a large enough effect; inconclusive = small, poorly fitted or top-dose-only effect; inactive = no such curve, though single readings can be large or run the other way;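 also: miR-21 action dims this reporter so a rising signal means less miR-21 action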
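HeLa cells stably expressing CMV-driven firefly luciferase with a downstream miR-21 binding sequence, endogenously expressing miR-21, were treated with titrations (up to about 40uM final) for 48 hours at 37 degree Celsius. Luciferase luminescence was read after lysis.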
BCR signal inh: inhibitors of chronic active B-cell receptor signaling. AID 493014. hit rate 0.05% among 340,000. Potency, µM (highest dose often 46.1 µM), actives largely listed as inhibitors. ABC-DLBCL IkBa-CBG/CBR reporter, luminescence ratio, 4 h; active = well fitted inhibition curve with a large enough effect in the signal ratio, with a control signal flat, not every such curve was filed as active; inconclusive = small, poorly fitted or top-dose-only effect, or effect the other way, or a change in a side signal; the % refers to the signal ratio
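TMD8 human ABC-DLBCL cells with doxycycline-inducible IκBα–green luciferase fusion and unfused red luciferase, in 0.5% FBS medium; compounds up to 46 uM, 4 h at 37C. Green/red luminescence ratio, filter-overlap corrected, fitted to concentration-response curves.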
PINK1 modulator: modulators of PINK1 expression. Potency, µM (titrated, usually from 76.6 µM), actives largely listed as activators. PINK1 immunofluorescence, high-content cytometry, 24 h. hit rate 0.2% among 410,000. AID 624263; active = well fitted activation curve with a large enough effect; inconclusive = small, poorly fitted or top-dose-only effect; cell line not stated here; note: nearly all actives have a fitted effect of over 65% in size
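PINK1 protein level read as immunofluorescence by microplate cytometer in a fixed, stained stable cell line after 24 h exposure to five compound concentrations, with CCCP as control.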
B2AR arrestin: recruits beta-arrestin to the human beta2-adrenergic receptor. P07550. beta-arrestin recruitment to beta2AR, cell-based reporter. Potency, µM (top dose mostly 46.1 µM), usual class: activators. hit rate 0.02% among 330,000. AID 492947; note: nearly all actives have a fitted effect of over 65% in size
Pin1 inhibitor: human Pin1 inhibition; Pin1 FP peptide displacement, HiFluor488, 10 min; hit rate 0.009% among 390,000; Potency, µM (series often up to 115 µM), most hits filed as inhibitors; active = well fitted inhibition curve with a large enough effect in the polarisation, with a control signal flat, not every such curve was filed as active; inconclusive = small, poorly fitted or top-dose-only effect, or effect the other way, or a change in a side signal; inactive = no such curve, though single readings can be large or run the other way; the % refers to the polarisation
PKM2 act: activators of human pyruvate kinase M2. P14618. purified PKM2, Kinase-Glo ATP luminescence, activation; response scale: 0% is enzyme alone, no compound. Potency, µM (doses to about 57.5 µM), most hits filed as activators. hit rate 0.34% among 260,000. AID 1631; note: nearly all actives have a fitted effect of over 55% in size
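hPK-M2, >95% pure; 0.1 mM ADP / 0.5 mM PEP final; imidazole pH7.2 buffer w/ 7 mM MgCl2, 50 mM KCl; 1 h RT; Kinase-Glo lum. Intermediate enzyme activity for dual inhibitor/activator qHTS.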
Large screens that a line does not name were inactive; ! = not active in a repeat. Shown are actives, neighbours in structure and some others; about 0.46% of the full set was active somewhere. Unless noted, calls come from the whole dose curve; as a rule, active = well fitted curve in the direction sought with a large enough effect; inconclusive = small, poorly fitted or top-dose-only effect, or another doubt; inactive = no such curve, though single readings can be large; an effect the other way counts as inactive or inconclusive.

CCn1cc([N+](=O)[O-])c(C(=O)N2N=C(c3ccc(O)c(OC)c3)CC2c2ccccc2O)n1 (configuration not stated)	PKM2 act 18µM
CCn1cc([N+](=O)[O-])c(C(=O)N2N=C(c3ccc4ccccc4c3)CC2c2cc(Br)ccc2O)n1 (configuration not stated)	miR-21 reporter inconclusive
CCn1cc([N+](=O)[O-])c(C(=O)N2N=C(c3ccc(Cl)c(Cl)c3)CC2c2ccccc2O)n1 (configuration not stated)	miR-21 reporter inconclusive, BCR signal inh inconclusive, PKM2 act 22µM
CCn1cc([N+](=O)[O-])c(C(=O)N2N=C(c3ccccc3)CC2c2ccc([N+](=O)[O-])cc2)n1 (configuration not stated)	BCR signal inh inconclusive
COc1ccc2c(=O)n3nc(Nc4ccc5c(c4)CCC5)sc3nc2c1	none (no result: miR-21 reporter, BCR signal inh, PINK1 modulator, B2AR arrestin, PKM2 act)
Cc1ccc(CNC(=O)C2c3ccccc3C(=O)N3CCc4ccccc4C23)o1 (configuration not stated)	PKM2 act 10µM
O=C(NCCN1CCN(Cc2ccccc2)CC1)C1c2ccccc2C(=O)N2CCc3ccccc3C12 (configuration not stated)	none
COc1ccc2nc(Cl)c(C3CC(c4ccco4)=NN3C(=O)CCCC(=O)O)cc2c1 (configuration not stated)	PKM2 act 22µM (no result: Pin1 inhibitor)
COc1cc(OC)cc(C(=O)N/N=C/c2ccc(OC)c(COc3ccc(F)cc3)c2)c1	BCR signal inh 10µM
COc1ccc(OCc2cc(/C=N\NC(=O)c3ccccc3)ccc2OC)cc1	BCR signal inh inconclusive
COCCNC(=S)N/N=C(\C)c1ccc(Cl)s1	BCR signal inh inconclusive, B2AR arrestin 10µM
C/C(=N\NC(=S)NCc1ccccc1)c1ccc(Cl)s1	none
O=C(c1ccccc1)N1CCN(c2nc(-c3cccs3)nc3ccccc23)CC1	none (no result: miR-21 reporter, BCR signal inh, PINK1 modulator, B2AR arrestin, PKM2 act)
COc1ccc(Cc2c(-c3ccc(C)cc3)nc3ccc(Cl)cn23)c(C)c1	PINK1 modulator 32µM (no result: miR-21 reporter, BCR signal inh, B2AR arrestin, Pin1 inhibitor, PKM2 act)
O=C(N1CCc2cc([S+](=O)([O-])N3CCN([S+](=O)([O-])c4c(F)cccc4F)CC3)ccc2C1)C(F)(F)F	none (no result: miR-21 reporter, BCR signal inh, PINK1 modulator, B2AR arrestin, PKM2 act)
COc1ccc2ncnc(NCc3cccs3)c2c1-c1ccc2c(c1)OCO2	none (no result: miR-21 reporter, BCR signal inh, PINK1 modulator, B2AR arrestin, PKM2 act)
Cc1ccc2[nH]c(C)c(/C=C/c3cc[n+](C)cc3)c2c1	BCR signal inh inconclusive, PINK1 modulator 14µM, Pin1 inhibitor inconclusive (no result: PKM2 act)
CCc1ccc(/C=C/c2c[nH]c3ccccc23)[n+](CC)c1	miR-21 reporter inconclusive, PINK1 modulator 32µM, Pin1 inhibitor inconclusive
CC1=NN(C(N)=S)C(=O)C1N=Nc1ccccc1 (configuration not stated)	BCR signal inh inconclusive, B2AR arrestin 1.4µM
Nc1ccc(S(=O)(=O)N2CCCN(S(=O)(=O)c3ccc4c(c3)OCCO4)CC2)cc1	none (no result: miR-21 reporter, BCR signal inh, PINK1 modulator, B2AR arrestin, PKM2 act)
CC(NC(=O)/C(=C/c1ccc(OC(F)F)cc1)c1ccccc1)c1ccccc1 (configuration not stated)	PINK1 modulator 45µM
CCCCCCCn1c2c(c(=N)c3ccccc31)CCC2	miR-21 reporter inconclusive, BCR signal inh inconclusive, PINK1 modulator 20µM
COc1ccc(S(=O)(=O)N2CCc3cc(OC)c(OC)cc3C2)cc1	PKM2 act 7.9µM
O=C(Nc1nc2c(F)cc(F)cc2s1)c1ccc(S(=O)(=O)N2CCc3ccccc32)cc1	PINK1 modulator 16µM (no result: BCR signal inh, B2AR arrestin, PKM2 act)
O=C(Nc1nc2c(F)cccc2s1)c1ccc(S(=O)(=O)N2CCCc3ccccc32)cc1	none (no result: BCR signal inh, B2AR arrestin, PKM2 act)
COc1ccc(-c2noc(CCC(=O)Nc3cccnc3)n2)cc1OC	PKM2 act 8.9µM
COc1ccc(-c2noc(CCCC(=O)Nc3cccnc3)n2)cc1OC	BCR signal inh inconclusive
COc1ccc(-c2n(Cc3ccccc3)c3ccccc3[n+]2Cc2ccccc2)cc1	miR-21 reporter inconclusive, BCR signal inh inconclusive, PINK1 modulator 11µM
Cc1ccc2nc(N3CCCCCC3)c(CN(CC3CCCO3)C(=O)c3cncs3)cc2c1 (configuration not stated)	none (no result: miR-21 reporter, BCR signal inh, B2AR arrestin, Pin1 inhibitor, PKM2 act)
Cc1ccc2nc3c(cc2c1)CN(Cc1ccco1)C(=NCC1CCCO1)S3 (configuration not stated)	PKM2 act inconclusive
Cc1cccc2cc3c(nc12)SC(=NCC1CCCO1)N(Cc1ccco1)C3 (configuration not stated)	miR-21 reporter inconclusive, BCR signal inh inconclusive, Pin1 inhibitor inconclusive, PKM2 act 11µM
COC(=O)C1CCCCN1Cc1ccc2c(c1)CN(C(=O)c1cc(C)nc3cc(F)ccc13)CCO2 (configuration not stated)	none (no result: miR-21 reporter, BCR signal inh, B2AR arrestin, Pin1 inhibitor, PKM2 act)
CN(C)c1ccc(/C=C/c2c[n+](C)cc3ccccc23)cc1	PINK1 modulator 45µM (no result: miR-21 reporter, BCR signal inh, B2AR arrestin, Pin1 inhibitor, PKM2 act)
CN(C)c1ccc(/C=C/c2ccc3ccccc3[n+]2C)cc1	miR-21 reporter inconclusive, BCR signal inh inconclusive, PINK1 modulator inconclusive
CN(C)c1ccc(/C=C/c2ccc3c4ccccc4ccc3[n+]2-c2ccccc2)cc1	miR-21 reporter inconclusive, BCR signal inh inconclusive, PINK1 modulator 8.9µM!
CN(C)c1ccc(/C=C/c2cncc3ccccc23)cc1	none (no result: miR-21 reporter, BCR signal inh, B2AR arrestin, Pin1 inhibitor, PKM2 act)
CC(=O)N(Cc1ccc2c(c1)OCO2)Cc1cc2ccc(C)cc2nc1-c1cccc(C)c1	none (no result: miR-21 reporter, BCR signal inh, B2AR arrestin, Pin1 inhibitor, PKM2 act)
O=C(Nc1cccc(Cl)c1Cl)c1ccc(-c2ccccc2)cc1	BCR signal inh inconclusive, PINK1 modulator 11µM, Pin1 inhibitor inconclusive
O=C(Nc1ccccc1Cl)c1ccc(C(=O)Nc2ccccc2Cl)cc1	none (no result: miR-21 reporter, BCR signal inh, B2AR arrestin, PKM2 act)
COCCN1C=C(C(=O)OC)C(c2cc3c(cc2Br)OCO3)C(C(=O)OC)=C1	PINK1 modulator 4µM
COc1cc(C2=NOC(C(=O)NCc3ccco3)C2)cc(OC)c1OC (configuration not stated)	BCR signal inh inconclusive, PINK1 modulator 11µM
Cc1oc(=O)c(NC(=O)c2cccc(Cl)c2)cc1C(=O)c1ccccc1	PKM2 act 7.1µM
CSc1nc(N)nc(SCC(=O)Nc2ccc(Cl)cc2)c1C#N	PKM2 act 4µM
CSc1nc(N)nc(SCC(=O)C(C)(C)C)c1C#N	BCR signal inh inconclusive
CSc1nc(N)nc(SCC(=O)CC(=O)OC(C)C)c1C#N	none
CSc1nc(N)nc(SCC(=O)Nc2cccc(F)c2)c1C#N	BCR signal inh inconclusive, PKM2 act 1.4µM
CCc1nc2cc(C(=O)N(C)C3CCOC3)cc(NC(=O)c3ccccc3OC)c2n1C (configuration not stated)	none (no result: miR-21 reporter, BCR signal inh, B2AR arrestin, Pin1 inhibitor, PKM2 act)
CCN(/N=C/c1cccs1)c1cc(=O)n(C)c(=O)[nH]1	PKM2 act 22µM
CCC(C)Sc1cc(-c2nc3ccccn3c2NC2CCCCC2)ccc1OC (configuration not stated)	none (no result: miR-21 reporter, PKM2 act)

Source: PubChem (National Center for Advancing Translational Sciences (NCATS))
